From patent US9937178B2, “Methods of identifying and using MDM2 inhibitors” (DUKE UNIVERSITY, priority 2011, dated 2018) come the findings set out here.

Protein sequences, listed by entry. Tags and fused reporters are not part of them.
UniProt Q00987, whole entry: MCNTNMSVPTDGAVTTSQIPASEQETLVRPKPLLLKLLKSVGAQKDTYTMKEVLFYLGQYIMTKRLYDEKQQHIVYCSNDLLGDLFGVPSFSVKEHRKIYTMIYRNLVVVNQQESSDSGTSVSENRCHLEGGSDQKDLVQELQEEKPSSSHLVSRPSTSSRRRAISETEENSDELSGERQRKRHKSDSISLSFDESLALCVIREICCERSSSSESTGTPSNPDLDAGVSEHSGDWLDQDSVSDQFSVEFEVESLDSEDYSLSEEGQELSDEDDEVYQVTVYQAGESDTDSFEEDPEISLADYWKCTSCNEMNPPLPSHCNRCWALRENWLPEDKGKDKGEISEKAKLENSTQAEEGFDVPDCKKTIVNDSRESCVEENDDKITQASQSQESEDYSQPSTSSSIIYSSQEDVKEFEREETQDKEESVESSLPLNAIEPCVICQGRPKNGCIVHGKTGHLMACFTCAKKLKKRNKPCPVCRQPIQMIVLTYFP

The target of assay [1] is Huwe1-MDM2 binding (Homo sapiens, UniProt Q00987). Put plainly: Huwe1(C/S)-MDM2 co-immunoprecipitation in H1299 cells. The settings on record: 10 μM Nutlin-3a, 6 hours. It counts as cell-based. The method, then:
Cells were transiently transfected with the indicated plasmid by FuGene6 (Roche) based on manufacturer's instruction. Cells were harvested and lysed with co-IP buffer (10 mM HEPES [pH 7.4], 150 mM KCl, 0.5% NP-40, 1 mM phenylmethylsulfonyl fluoride, 5 μg/ml leupeptin, and 5 μg/ml aprotinin). Cell lysate was incubated with anti-FLAG M2 agarose (Sigma) or anti-AH affinity matrix (Roche) at 4° C. for 2-3 hours. The bead pellet was washed three times with co-IP buffer and then incubated with SDS-sample buffer.

Assay [2] addresses T1, CAS-MDM2 interaction (Homo sapiens, UniProt Q00987).
T1 construct: association of endogenous MDM2 was analyzed by immunoblotting; expressed in transfected cells; host or cells: BT474 and rBT474 cells transfected with FLAG-CAS; MDM2 endogenous
Put plainly: CAS-MDM2 co-immunoprecipitation. It counts as cell-based. The settings on record: Nutlin-3a.

Consider `COc1ccc(C2=N[C@@H](c3ccc(Cl)cc3)[C@@H](c3ccc(Cl)cc3)N2C(=O)N2CCNC(=O)C2)c(OC(C)C)c1` [Nutlin-3a], for which the “binding of Huwe1(C/S) to endogenous MDM2” value in assay [1] is listed as “significantly reduced”. The “MDM2 and CAS binding” value in assay [2] is reported as “significantly inhibited”.
